pIC50: −log10 of the molar value.
Biological target: Broad substrate specificity ATP-binding cassette transporter ABCG2 (Homo sapiens, UniProt Q9UNQ0)
Test: Inhibition of BCRP expressed in MDCK cells using Hoechst 33342 staining
Type: cell-based

The chains behind the UniProt entries cited, without tags or fusion partners. Where a name states a change or a piece, a line headed by the entry shows the natural chain unless it says otherwise.
UniProt Q9UNQ0: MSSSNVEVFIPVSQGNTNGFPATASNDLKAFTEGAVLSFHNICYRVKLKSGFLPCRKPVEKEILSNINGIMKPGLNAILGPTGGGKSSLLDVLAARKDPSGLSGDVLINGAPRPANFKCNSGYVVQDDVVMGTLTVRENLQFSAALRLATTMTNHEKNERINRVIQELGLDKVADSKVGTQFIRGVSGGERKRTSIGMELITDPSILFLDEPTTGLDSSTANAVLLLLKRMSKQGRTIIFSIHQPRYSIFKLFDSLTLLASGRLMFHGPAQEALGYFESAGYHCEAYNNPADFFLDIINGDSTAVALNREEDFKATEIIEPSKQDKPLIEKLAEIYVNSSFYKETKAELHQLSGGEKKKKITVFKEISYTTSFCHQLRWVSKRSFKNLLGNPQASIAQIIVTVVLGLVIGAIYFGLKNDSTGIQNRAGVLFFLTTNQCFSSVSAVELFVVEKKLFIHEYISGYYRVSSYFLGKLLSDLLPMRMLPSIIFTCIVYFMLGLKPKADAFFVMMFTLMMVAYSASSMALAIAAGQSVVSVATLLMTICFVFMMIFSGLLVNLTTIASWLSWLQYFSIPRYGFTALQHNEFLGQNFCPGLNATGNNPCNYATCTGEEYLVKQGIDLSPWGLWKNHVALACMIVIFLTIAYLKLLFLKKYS

pIC50: 5.82
SMILES: O=c1cc(-c2ccccc2)oc2cc(O)cc(O)c12 [CHRYSIN]

— ChEMBL document CHEMBL1681785, “Structure-activity relationships of flavonoids as inhibitors of breast cancer resistance protein (BCRP)” (Bioorg Med Chem, 2011)
